{"source": "patent US20200323882A1", "about": "“PHLIP®-MEDIATED TARGETING OF CORTICOSTEROIDS TO DISEASED TISSUE” (priority 2019, published 2020)", "key": {"[1]": {"test_system": "RPMI 8226 myeloma cells", "conditions": "5 μM pHLIP-Dexa with increasing amounts of pHLIP-Cal, viability after 22 hours"}, "[2]": {"conditions": "11.4 mg/kg pHLIP-Dexa in PBS/5% DMSO"}}, "data": [{"substance": "pHLIP-(PEG4)-dexamethasone [pHLIP-Dexa]", "values": [{"measurement": "effect on cytotoxicity of pHLIP-Cal", "setting": "[1]", "result": "enhanced cytotoxic effect of pHLIP-Cal"}, {"measurement": "appearance of solution (aggregation)", "setting": "[2]", "result": "cloudy"}]}]}
